Experimental data from patent US6517846B2, “Cosmetic composition” (Kyowa Hakko Kogyo Co., Ltd., priority 2000, dated 2003).

Tested on: human normal keratinocytes
Experiment: Evaluation of cytotoxicity suppression for human normal keratinocytes (summary statements, method not specified)
Conditions: MTT and NR methods

Q: With Triethanolamine N-Cocoyl-L-glutaminate as the substance, how does the “cytotoxicity, comparison in words (from Table 1)” value read?
A: less toxic than N-cocoyl-L-glutamate

Q: How did the “cytotoxicity, comparison in words (from Table 1)” value turn out when triethanolamine N-cocoyl glutamate was run?
A: less cytotoxic than lauroyl β-alanine
